# Values quoted from earlier work as cited in patent publication US8642793B1, “Biosurfactant produced by Aureobasidium pullulans” (Gyeongbuk Institute for Marine Bio-industry, priority 2012, dated 2014).
# Settings: reference liquids of Table 1, no amount given; cited from earlier work
substance,measurement,value
Mercury,Surface tension,486 dyne/cm
